Laboratory results taken from patent US9789116B2, “Compositions and methods of modulating short-chain dehydrogenase activity” (CASE WESTERN RESERVE UNIVERSITY, priority 2013, dated 2017).

Sequences of proteins named here, by UniProt entry; tags and fusion partners are left off.
UniProt P15428, whole entry: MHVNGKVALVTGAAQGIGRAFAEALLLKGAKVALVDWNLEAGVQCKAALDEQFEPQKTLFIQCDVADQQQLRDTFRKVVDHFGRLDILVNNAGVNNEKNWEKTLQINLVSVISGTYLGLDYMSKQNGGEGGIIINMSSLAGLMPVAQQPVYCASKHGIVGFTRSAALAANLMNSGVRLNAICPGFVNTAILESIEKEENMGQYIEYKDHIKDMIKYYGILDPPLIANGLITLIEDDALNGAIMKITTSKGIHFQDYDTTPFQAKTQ

Key:
15-PGDH protein = 15-PGDH protein levels in cell lines (western blot, immuno-fluorescence)
A549 cells = experiment: PGE2 levels in medium of IL1-beta stimulated A549 cells; format: cell-based; conditions: IL1-beta 23 hours, compound added for the last 5 hours
recombinant 15-PGDH = recombinant 15-PGDH (Homo sapiens (Human), UniProt P15428); experiment: Melting temperature shift of recombinant 15-PGDH (SYPRO Orange); format: binding; conditions: 10 μM and 100 μM cofactor (NAD, NADH)
[1] = system: 15-PGDH activity in cell lines; experiment: Total 15-PGDH activity in lysates of treated cell lines (tritium method); conditions: FIG. 13
15-PGDH mRNA = 15-PGDH mRNA levels in colon cancer cell lines by real-time PCR; conditions: treated colon cancer cell lines

Compound: COc1ccc(-c2cc(C(F)(F)F)n3nc(C(=O)N4CCCCC4)cc3n2)cc1
- levels of 15-PGDH protein (wt-PGDH) from cDNA expression vector (15-PGDH protein; 5 μM, V400-S3-2-32 cells): increases levels of 15-PGDH protein
- 15-PGDH protein levels by immuno-fluorescence and western blot (15-PGDH protein; V503 cells): increase in 15-PGDH protein levels
- 15-PGDH protein levels (western blot) (15-PGDH protein; colon cell lines): increases 15-PGDH protein levels
- 15-PGDH activity in cells as reflected in PGE2 levels in medium (A549 cells): clear inhibition of 15-PGDH activity in the cells
- direct binding to 15-PGDH by melting temperature shift (recombinant 15-PGDH): evidence of direct binding to 15-PGDH
- 15-PGDH activity in treated cells (tritium method) [1]: increasing 15-PGDH activity in most cell lines
- 15-PGDH mRNA levels (15-PGDH mRNA): do not in general alter 15-PGDH mRNA levels
